Experimental data from US10464912B2, “Choline cocrystal of epalrestat” (BIONEVIA PHARMACEUTICALS, INC., priority 2008, dated 2019).

Settings: FIG. 6B

With `CC(/C=C1\SC(=S)N(CC(=O)O)C1=O)=C\c1ccccc1` [choline hydrogen diepalrestat] as the molecule, how does the “solubility in water compared with epalrestat free acid” value read?
Its value is “greater solubility in water than the free acid”.
